PubChem BioAssay AID624256 (NMMLSC, 2012)
Only a part is listed here, and it is no random draw. Some salts or complexes appear as unconnected parts, following the source record. Activity calls are given as the source filed them.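 The calls were made as follows: active = normalized GFP-positive differentiation at or above the plate's own cutoff, the solvent-only control mean plus 3 SD; inconclusive = no clear call, values can overlap the other calls; inactive = the rest.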

Assay: induction of myeloid progenitor differentiation, primary screen, cell-based, flow cytometry, MLPCN library (AID 624256)
Settings: ER-HoxA9 myeloid progenitors, lysozyme-GFP differentiation, at 10 µM

| Compound | outcome |
| --- | --- |
| CP(=O)(OCCOc1ccccc1)OCCOc1ccccc1 | inactive |
| Nc1cccc2ccc([As](=O)(O)O)cc12 | inactive |
| CCN(N=Nc1nonc1N)c1nonc1N | inactive |
| Cc1ccc(N/C(=N/P(=O)(N2CCOCC2)N2CCOCC2)N2CCOCC2)cc1 | inactive |
| CN(C(=O)Cc1ccc(Cl)c(Cl)c1)[C@H]1CCCC[C@H]1N1CCCC1 | inactive |
| COc1ccccc1OP(C)(=O)Nc1ccc(Br)cc1 (stereo unspecified) | inactive |
| NC(=O)c1cc([N+](=O)[O-])cc([N+](=O)[O-])c1N | inactive |
| CN1CCCC(OC(=O)C(c2ccccc2)c2ccccc2)C1 (stereo unspecified) | inactive |
| Clc1ccc(Cl)c(NC2=NCC(CBr)S2)c1 (stereo unspecified) | inactive |
| CN(C)CCOC(=O)C(O)(c1ccccc1)C1CCCC1 (stereo unspecified) | inactive |
| Cc1ccc(OP(=O)(Nc2nccs2)Oc2ccc(C)cc2)cc1 | inactive |
| COc1ccccc1OP(=O)(Nc1ccc(C)cn1)Oc1ccccc1OC | inactive |
| COc1ccc(OP(C)(=O)Nc2ccccn2)cc1 (stereo unspecified) | inactive |
| O=C(NC(Sc1ccncn1)C(Cl)(Cl)Cl)c1ccccc1 (stereo unspecified) | inactive |
| Oc1ccccc1CNc1ccccn1 | inactive |
| Cc1c(NP(C)(=O)Oc2ccc(C(C)C)cc2)c(=O)n(-c2ccccc2)n1C (stereo unspecified) | inactive |
| Nc1cc(N)c2nonc2c1[N+](=O)[O-] | inactive |
| CC(C)CC(=O)NC(Sc1ccc(Cl)cc1)C(Cl)(Cl)Cl (stereo unspecified) | inactive |
| O=[N+]([O-])c1cc([N+](=O)[O-])c(Nc2ccccn2)c([N+](=O)[O-])c1 | inactive |
| O=[N+]([O-])C1C(O)C(O)C([N+](=O)[O-])C(O)C1O (stereo unspecified) | inactive |
| COc1ccccc1OP(C)(=O)Nc1ccc(C)cc1C (stereo unspecified) | inactive |
| CP(=O)(Nc1ccccn1)Oc1ccccc1 (stereo unspecified) | inactive |

| Compound | outcome |
| --- | --- |
| CCOc1ccc(C2=NCC(CBr)S2)cc1 (stereo unspecified) | inactive |
| O=[N+]([O-])c1cc([N+](=O)[O-])c(Nc2ccc(Cl)cc2)c([N+](=O)[O-])c1 | inactive |
| O=P1(Nc2nc3ccc(Cl)cc3s2)COc2ccccc2O1 (stereo unspecified) | inactive |
| CC(C)c1ccc(OP(C)(=O)Nc2ccc(SC(F)(F)F)cc2)cc1 (stereo unspecified) | inactive |
| CC(C)(C)C(=O)NC(Sc1ccccc1)C(Cl)(Cl)Cl (stereo unspecified) | inactive |
| CP(=O)(Nc1ccccc1F)Oc1ccccc1 (stereo unspecified) | inactive |
| CCc1cc(O)c([N+](=O)[O-])c(C)c1[N+](=O)[O-] | inactive |
| C[C@H]1OP(=O)(Oc2ccccc2)C[C@@H]2O[C@@H]21 (stereo partly specified) | inactive |
| C[C@@H]1C=CCP(=O)(Oc2ccccc2)O1 (stereo partly specified) | inactive |
| Cc1ccccc1CN(C)C(=O)COC(=O)C(O)(c1ccccc1)c1ccccc1 | inactive |
| O=C(OCCN1CCN(CCOCc2ccccc2)CC1)C(O)(c1ccccc1)c1ccccc1 | inactive |
| COC(=O)C1(C)COP(=O)(NCc2ccccc2)OC1 (stereo unspecified) | inactive |
| O=C(OC1CN2CCC1CC2)c1ccc([N+](=O)[O-])cc1 (stereo unspecified) | inactive |
| CC(=O)c1ccc(N2CC2c2ccncc2)cc1 (stereo unspecified) | inactive |
| CC(=O)Nc1ccc(Oc2c([N+](=O)[O-])cc([N+](=O)[O-])cc2[N+](=O)[O-])cc1 | inactive |
| CC(=O)Nc1ccc([As](=O)(O)O)c(O)c1 | inactive |
| COc1ccc2c(c1O)-c1c(O)c(OC)cc3c1[C@H](C2)[N+](C)(C)CC3.O=[N+]([O-])c1cc([N+](=O)[O-])c([O-])c([N+](=O)[O-])c1[O-] | inactive |
| Cc1ccc(NP(=O)(Oc2cccc(C)c2)Oc2cccc(C)c2)nc1 | inactive |
| CCN(CC)CCCNc1ccccc1[N+](=O)[O-].O=[N+]([O-])c1cc([N+](=O)[O-])c(O)c([N+](=O)[O-])c1 | inactive |
| c1ccc(-c2nn[nH]n2)c(-c2nn[nH]n2)c1 | inactive |
| CCNC(=S)/N=C(\N)N[N+](=O)[O-] | inactive |
| O=C(NC1CCS(=O)(=O)C1)NP(=S)(Oc1ccccc1)Oc1ccccc1 (stereo unspecified) | inactive |

| Compound | outcome |
| --- | --- |
| COc1ccc(OP(C)(=O)Nc2ccc(SC(F)(F)F)cc2)cc1 (stereo unspecified) | inactive |
| CCOC(=O)c1ccc(NP(C)(=O)Oc2ccc(F)cc2)cc1 (stereo unspecified) | inactive |
| O=P1(N(CCCl)CCCl)OCCC2CCCCN21 (stereo unspecified) | inactive |
| CCN(CC)CCCOC(=O)C(O)(c1ccccc1)C1CCCCC1 (stereo unspecified) | inactive |
| CCC(=O)N1C2C3N(C(=O)CC)C1C1N(C(=O)CC)C(C(N1C(=O)CC)N3C(=O)CC)N2C(=O)CC | inactive |
| O=C(OC1CN2CCC1CC2)c1ccccc1 (stereo unspecified) | inactive |
| CC(=O)NC(SC(=S)N(CC(C)C)CC(C)C)C(Cl)(Cl)Cl (stereo unspecified) | inactive |
| Cc1ccc(OP(=O)(Nc2ccccn2)Oc2ccc(C)cc2)cc1 | inactive |
| Cc1c([N+](=O)[O-])cc([N+](=O)[O-])c(Br)c1[N+](=O)[O-] | inactive |
| COC(=O)c1cc2c(s1)N=C(c1ccccc1)N(C)P2(=O)N1CCOCC1 (stereo unspecified) | inactive |
| O=[N+]([O-])c1cc([N+](=O)[O-])c(OC2CCCCC2O)c([N+](=O)[O-])c1 (stereo unspecified) | inactive |
| CCCCCOc1ccc(NP(C)(=O)Oc2ccc(Cl)cc2Cl)cc1 (stereo unspecified) | inactive |
| CN(C)C(=O)Oc1noc2ccccc12 | inactive |
| CC(NC(=O)COC(=O)C(O)(c1ccccc1)c1ccccc1)c1ccccc1 (stereo unspecified) | inactive |
| Cc1ccccc1OP(=O)(Nc1ccccn1)Oc1ccccc1C | inactive |
| CP(=O)(Nc1ccccc1)Oc1ccc(F)cc1 (stereo unspecified) | inactive |
| O=P(Nc1ccccn1)(c1ccc(Br)cc1)c1ccc(Br)cc1 | inactive |
| CN(C)C1(CNC(=O)c2ccc(Cl)c(S(N)(=O)=O)c2)CCCCC1 | inactive |
| COc1ccc(N)c([N+](=O)[O-])c1[N+](=O)[O-] | inactive |
| COc1ccc(OP(C)(=O)Nc2cccc(Br)c2)cc1 (stereo unspecified) | inactive |
| COc1ccc(NP(C)(=O)Oc2ccccc2OC)cc1 (stereo unspecified) | inactive |
| C[C@H]1OP(=O)(Oc2ccccc2)[C@H](O)[C@H](O)[C@H]1N=[N+]=[N-] (stereo partly specified) | inactive |

| Compound | outcome |
| --- | --- |
| CN(C)CCOC(=O)C(O)(c1ccccc1)C1CCCCC1 (stereo unspecified) | inactive |
| O=P(Nc1nc2ccccc2s1)(c1ccccc1)c1ccccc1 | inactive |
| Cc1cc(-c2cccc3ccccc23)c(C)cn1.O=[N+]([O-])c1cc([N+](=O)[O-])c(O)c([N+](=O)[O-])c1 | inactive |
| O=[As](O)(c1ccccc1)c1ccc(O)cc1 | inactive |
| O=[N+]([O-])c1ccc(O)c(/C=N/Nc2ccc([N+](=O)[O-])cc2[N+](=O)[O-])c1 | inactive |
| O=[N+]([O-])c1ccc(OP2(=O)COCCO2)cc1 (stereo unspecified) | inactive |
| CC(=O)NC(SC(=S)N(C)C)C(Cl)(Cl)Cl (stereo unspecified) | inactive |
| O=[N+]([O-])c1ncn(CCn2cnc([N+](=O)[O-])n2)n1 | inactive |
| O=C(OC1CN2CCC1CC2)c1cccc(Cl)c1 (stereo unspecified) | inactive |
| C(Cc1nn[nH]n1)Cc1nn[nH]n1 | inactive |
| Nc1ccc([As](=O)(O)c2ccc([N+](=O)[O-])cc2)cc1 | inactive |
| Cc1c(C(c2ccc3c(c2)OCO3)c2c(C)n(C)n(-c3ccccc3)c2=O)c(=O)n(-c2ccccc2)n1C.O=[N+]([O-])c1cc([N+](=O)[O-])c(O)c([N+](=O)[O-])c1 | inactive |
| CC(C)C(=O)NC(Sc1ccccc1)C(Cl)(Cl)Cl (stereo unspecified) | inactive |
| O=P(Nc1nccs1)(c1ccccc1)c1ccccc1 | inactive |
| CP(=O)(Nc1ccc(SC(F)(F)F)cc1)Oc1ccc(F)cc1 (stereo unspecified) | inactive |
| c1nnnn1CCn1cnnn1 | inactive |
| CCOP(C)(=S)SCC(=O)NC(C)(CC)C(=O)O (stereo unspecified) | inactive |
| CP(=O)(Nc1ccc2c(c1)OCCO2)Oc1ccccc1 (stereo unspecified) | inactive |
| O=[N+]([O-])c1cc([N+](=O)[O-])c(C(F)(F)F)c([N+](=O)[O-])c1O | inactive |
| Cc1ccccc1NP(C)(=O)Nc1ccccc1C | inactive |
